Here are results for two compounds from US10214512B2, “Factor XIA inhibitors” (MERCK SHARP & DOHME CORP., priority 2015, dated 2019).

Sequences of proteins named here, by UniProt entry; tags and fusion partners are left off. Residues count along the entry.
UniProt P03952, 391-638 limits assumed: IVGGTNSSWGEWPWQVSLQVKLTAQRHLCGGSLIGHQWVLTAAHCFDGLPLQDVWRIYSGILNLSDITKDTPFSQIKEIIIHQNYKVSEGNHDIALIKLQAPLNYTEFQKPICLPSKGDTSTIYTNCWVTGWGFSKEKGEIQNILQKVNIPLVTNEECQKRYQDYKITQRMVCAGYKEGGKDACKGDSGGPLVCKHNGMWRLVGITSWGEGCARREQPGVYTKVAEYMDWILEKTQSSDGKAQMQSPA
UniProt P03952, 20-390 partner limits assumed: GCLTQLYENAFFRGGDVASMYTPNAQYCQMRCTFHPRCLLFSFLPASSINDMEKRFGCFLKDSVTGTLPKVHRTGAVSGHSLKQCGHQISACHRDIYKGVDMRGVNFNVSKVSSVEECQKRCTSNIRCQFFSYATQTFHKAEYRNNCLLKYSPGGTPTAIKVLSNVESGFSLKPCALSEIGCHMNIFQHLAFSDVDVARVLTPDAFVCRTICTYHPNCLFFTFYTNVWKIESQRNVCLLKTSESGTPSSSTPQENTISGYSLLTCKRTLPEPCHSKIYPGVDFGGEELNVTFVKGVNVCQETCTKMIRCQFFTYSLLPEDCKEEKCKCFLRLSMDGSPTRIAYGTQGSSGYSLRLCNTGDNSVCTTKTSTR
UniProt P03951, 388-625 limits assumed: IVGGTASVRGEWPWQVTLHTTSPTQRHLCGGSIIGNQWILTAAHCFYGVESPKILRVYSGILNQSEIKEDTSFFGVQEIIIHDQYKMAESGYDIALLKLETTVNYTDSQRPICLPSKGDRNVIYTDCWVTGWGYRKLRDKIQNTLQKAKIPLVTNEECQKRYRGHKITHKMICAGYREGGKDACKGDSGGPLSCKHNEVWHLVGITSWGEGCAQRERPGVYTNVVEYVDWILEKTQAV
UniProt P03951, 19-387 partner limits assumed: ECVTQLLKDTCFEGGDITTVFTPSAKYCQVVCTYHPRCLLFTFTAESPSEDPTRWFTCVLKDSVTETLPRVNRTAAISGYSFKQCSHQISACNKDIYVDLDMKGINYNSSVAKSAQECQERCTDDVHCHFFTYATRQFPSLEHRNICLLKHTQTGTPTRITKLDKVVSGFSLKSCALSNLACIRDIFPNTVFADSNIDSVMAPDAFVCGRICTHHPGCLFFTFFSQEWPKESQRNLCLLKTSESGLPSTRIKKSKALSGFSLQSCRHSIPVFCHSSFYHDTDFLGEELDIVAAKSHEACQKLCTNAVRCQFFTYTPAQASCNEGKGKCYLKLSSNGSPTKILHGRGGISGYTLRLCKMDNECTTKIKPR

In experiment [1] the target is purified Human plasma Kallikrein (Homo sapiens (Human), UniProt P03952). Description: Kallikrein Assay. To be noted: read-out: Human plasma Kallikrein Ki; purified Human plasma Kallikrein 0.5 nM; substrate Acetyl-K-P-R-AFC; 50 mM HEPES pH 7.4; Ki from IC50 by Cheng Prusoff. Type of experiment: biochemical.
The target in experiment [2] is purified human Factor XIa (Homo sapiens (Human), UniProt P03951). The experiment in a line: Factor XIa Assay. Type of experiment: biochemical. The following applies: read-out: Human FXIa Ki; purified human Factor XIa 40 pM; substrate Z-Gly-Pro-Arg-AFC 100 μM; 50 mM HEPES pH 7.4.

pKi: −log10 of the molar value.

Turning to `COC(=O)Nc1ccc2c(c1)NC(=O)CCCC[C@H](c1ccc(-c3c(F)ccc(F)c3F)c[n+]1[O-])c1nc-2c(C)[nH]1`, the negative logarithm of the Ki (pKi) in experiment [1] was 9.11; in experiment [2] it was 9.57.

In the case of `COC(=O)Nc1ccc2c(c1)NC(=O)CCCC[C@H](c1ccc(-c3c(F)cccc3C(F)F)c[n+]1[O-])c1nc-2c(C)[nH]1`, the pKi in experiment [1] is 9.37; in experiment [2], 9.96.
